# ChEMBL document CHEMBL2380216, “Design and selection parameters to accelerate the discovery of novel central nervous system positron emission tomography (PET) ligands and their application in the development of a novel phosphodiesterase 2A PET ligand” (J Med Chem, 2013)
# Protein sequences, listed by entry. Tags and fused reporters are not part of them. Lines headed by an entry give the natural chain unless they say otherwise; changes in a name come on top.
# UniProt Q9HCR9: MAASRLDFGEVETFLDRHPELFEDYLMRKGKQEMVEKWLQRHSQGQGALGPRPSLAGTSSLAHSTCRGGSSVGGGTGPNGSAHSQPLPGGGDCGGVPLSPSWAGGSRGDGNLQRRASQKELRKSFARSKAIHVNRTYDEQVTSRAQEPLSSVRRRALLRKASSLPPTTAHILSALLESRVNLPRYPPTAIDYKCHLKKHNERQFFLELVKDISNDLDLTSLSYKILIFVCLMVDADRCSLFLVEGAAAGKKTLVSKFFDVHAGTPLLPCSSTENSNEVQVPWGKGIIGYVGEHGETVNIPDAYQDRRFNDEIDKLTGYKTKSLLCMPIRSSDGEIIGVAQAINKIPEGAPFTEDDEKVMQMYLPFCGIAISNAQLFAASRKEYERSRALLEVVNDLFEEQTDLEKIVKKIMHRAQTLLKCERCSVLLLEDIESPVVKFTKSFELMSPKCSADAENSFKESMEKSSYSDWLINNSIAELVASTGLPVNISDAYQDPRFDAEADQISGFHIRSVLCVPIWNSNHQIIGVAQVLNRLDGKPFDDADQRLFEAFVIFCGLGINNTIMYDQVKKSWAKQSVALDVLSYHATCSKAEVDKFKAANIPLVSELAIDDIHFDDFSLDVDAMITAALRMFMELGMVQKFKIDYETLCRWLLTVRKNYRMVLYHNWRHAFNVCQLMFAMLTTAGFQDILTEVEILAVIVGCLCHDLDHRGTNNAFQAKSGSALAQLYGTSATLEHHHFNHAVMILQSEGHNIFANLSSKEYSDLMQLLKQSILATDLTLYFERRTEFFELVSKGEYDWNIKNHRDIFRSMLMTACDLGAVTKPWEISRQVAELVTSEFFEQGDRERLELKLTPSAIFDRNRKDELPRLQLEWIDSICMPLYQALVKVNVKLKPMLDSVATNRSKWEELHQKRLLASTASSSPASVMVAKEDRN
# Biological target: Dual 3',5'-cyclic-AMP and -GMP phosphodiesterase 11A (Homo sapiens, UniProt Q9HCR9)
# Assay: Inhibition of PDE11 (unknown origin)
smiles,measurement,value
Cc1nc(-c2cnn(C)c2-c2ccc(C(F)(F)F)cc2)c2c(N3CC(F)C3)ncnn12,IC50,> 10 µM
